Ab-14 heavy chain CDR variants: yeast mating affinities

Reference: Engelhart et al. 2022, doi:10.1038/s41597-022-01779-4. File: FLAb, binding data.

Binding partner: SARS-CoV-2 spike HR2 peptide, sequence PDVDLGDISGINAS.

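The starting antibody came from a phage panning campaign against this peptide. Variants in AAYL49 differ from the parent at up to three CDR positions; double and triple changes were sampled at random. Affinity was read by AlphaSeq, a pooled yeast mating assay with surface-displayed partners. The frequency of each diploid, read from paired DNA barcodes, reflects how well the two displayed proteins bind. A regression on co-assayed BCL2-family reference pairs converts the normalised counts of each replicate to an apparent Kd. Mating was done three times.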

The variants keep the light chain, the linker and the frameworks of Ab-14 (scFv order VH, three GGGGS repeats, VL).
VH: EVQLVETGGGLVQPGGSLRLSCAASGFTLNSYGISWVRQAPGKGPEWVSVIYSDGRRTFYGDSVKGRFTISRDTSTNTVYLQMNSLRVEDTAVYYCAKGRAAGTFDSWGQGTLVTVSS
VL: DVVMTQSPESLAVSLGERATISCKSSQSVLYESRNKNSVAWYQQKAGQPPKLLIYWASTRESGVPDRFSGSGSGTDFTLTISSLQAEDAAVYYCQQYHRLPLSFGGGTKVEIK

Changes read parent residue, position, new residue, counted from the first residue of the VH shown. The Kd shown is the geometric mean over detected replicates; a lower Kd is a better binder. "no signal" means that the variant was in the library but no mating with the target was seen in any replicate; the authors take this as a sign of poor binding, and no number exists. Parent in this assay: reference entry 4.4 nM, copy in this library 13 µM (one replicate of three). Three control strains display no target. For library AAYL49, 15% of the pairings with them gave a signal, with a median of 11 µM and one signal in twenty below 680 nM, so weak values seen in few replicates may be background. For each scFv, signals with the empty controls are counted beside the result.

changes | apparent Kd | detected | control signals
T28W/S107H | no signal | 0/3 | 3/9
V50R/V64N/T104D | no signal | 0/3 | 1/9
L29Y/N30H/D54I | no signal | 0/3 | 0/9
N30W/R56M/T58I | 1.9 µM | 1/3 | 4/9
R57G/G99L/S107E | no signal | 0/3 | 0/9
L29T/V64W/R100Q | no signal | 0/3 | 0/9
I34Y/V50Q/T58A | 280 µM | 1/3 | 4/9
I51G/G61N/K65I | no signal | 0/3 | 0/9
S31M/V64H | no signal | 0/3 | 0/9
R56P/F59P/G99Y | 72 µM | 1/3 | 2/9
F27N/I34D/S35G | no signal | 0/3 | 0/9
R57A/T58S/T104K | 430 nM | 1/3 | 1/9
V64A/G103F/S107Y | 640 nM | 1/3 | 0/9
L29V/K65M/A102C | 230 µM | 1/3 | 1/9
T28E/R100D/S107E | 3.8 nM | 3/3 | 3/9
T28A/G99L | 160 µM | 1/3 | 1/9
S31K/I51A/R56Q | 690 nM | 3/3 | 0/9
G33W/F59R | 220 µM | 1/3 | 6/9
V50G/D62L | no signal | 0/3 | 0/9
G61K/A101H | 11 nM | 3/3 | 2/9
R100C/T104W | no signal | 0/3 | 1/9
G26P/R100C | 17 µM | 2/3 | 2/9
S35E/A102M | no signal | 0/3 | 1/9
G55T/G61K/A101E | 71 µM | 1/3 | 3/9
Y52D/T104C/S107R | no signal | 0/3 | 1/9
I34D/K65I/T104L | no signal | 0/3 | 1/9
F27C/S31P/G55I | no signal | 0/3 | 0/9
G26K/Y32H/G103H | no signal | 0/3 | 2/9
S35L/T58S/G103I | 140 µM | 1/3 | 5/9
Y52V/S63D/D106S | no signal | 0/3 | 0/9
G61E/D62G/F105R | 3.3 µM | 1/3 | 0/9
L29C/G103L/T104G | no signal | 0/3 | 0/9
T28H/S107L | no signal | 0/3 | 1/9
F27C/R57Q/G99W | 19 µM | 1/3 | 3/9
V50W/F59N/V64W | 1.0 µM | 1/3 | 0/9
F27T/L29E/V50Q | no signal | 0/3 | 0/9
T28C/V50G/T58F | 29 µM | 1/3 | 0/9
N30W/F105I | 72 µM | 2/3 | 3/9
F27N/T28L/R57F | no signal | 0/3 | 2/9
Y52G/R56D/K65A | no signal | 0/3 | 1/9
R100T/D106C | no signal | 0/3 | 0/9
L29H/V50A/Y52P | no signal | 0/3 | 0/9
V50M/G103T | 150 µM | 1/3 | 1/9
D62R/R100N/S107Q | 69 nM | 3/3 | 0/9
F27H/Y32G/T58G | no signal | 0/3 | 0/9
N30K/F59Q/T104K | no signal | 0/3 | 0/9
R57A/Y60H/D106K | 9.4 µM | 1/3 | 0/9
Y60D/D106P/S107F | 5.8 µM | 2/3 | 0/9
L29M/G61M/A102Q | no signal | 0/3 | 1/9
S31H/F59C/D62V | 18 µM | 1/3 | 0/9
R56Y/K65V/F105P | 14 µM | 3/3 | 0/9
L29Q/R57F/T104M | no signal | 0/3 | 0/9
L29G/S31F/I34G | 68 µM | 3/3 | 7/9
I51E/V64D/D106N | 7.1 µM | 1/3 | 2/9
N30W/Y52R/K65S | 8.0 µM | 1/3 | 0/9
Y52K/K65G/T104L | 750 µM | 1/3 | 0/9
G26C/T28L/I51M | no signal | 0/3 | 1/9
Y32G/T58E/G61Q | no signal | 0/3 | 0/9
L29Y/Y32D/G61I | no signal | 0/3 | 1/9
D54P/V64W/F105G | 190 µM | 2/3 | 5/9
N30D/G33D/S63T | no signal | 0/3 | 1/9
N30C/G103M/S107R | no signal | 0/3 | 0/9
Y32I/K65G/G103L | 490 µM | 1/3 | 4/9
D54C/V64L/R100Q | no signal | 0/3 | 1/9
N30D/D54T/K65C | no signal | 0/3 | 1/9
G33N/Y52L/D54I | no signal | 0/3 | 2/9
G26K/K65T/A102T | no signal | 0/3 | 0/9
G61S/K65M/D106S | 9.3 nM | 3/3 | 3/9
I34R/S63M/F105Q | 24 µM | 2/3 | 3/9
G26H/Y52A/T104Y | 16 µM | 2/3 | 2/9
T28R/G33S/A102P | no signal | 0/3 | 2/9
F27G/Y32P/A102P | no signal | 0/3 | 2/9
Y32S/V64L | 530 µM | 1/3 | 1/9
G26T/R57A/A102Y | 62 µM | 3/3 | 5/9
R57I/G99L/F105V | no signal | 0/3 | 0/9
V50K/S107C | no signal | 0/3 | 0/9
I34T/S35A | 2.3 µM | 3/3 | 0/9

Excerpt, the first 9 entries:

| changes | apparent Kd | detected | control signals |
|---|---|---|---|
| T28W/S107H | no signal | 0/3 | 3/9 |
| V50R/V64N/T104D | no signal | 0/3 | 1/9 |
| L29Y/N30H/D54I | no signal | 0/3 | 0/9 |
| N30W/R56M/T58I | 1.9 µM | 1/3 | 4/9 |
| R57G/G99L/S107E | no signal | 0/3 | 0/9 |
| L29T/V64W/R100Q | no signal | 0/3 | 0/9 |
| I34Y/V50Q/T58A | 280 µM | 1/3 | 4/9 |
| I51G/G61N/K65I | no signal | 0/3 | 0/9 |
| S31M/V64H | no signal | 0/3 | 0/9 |